SMILES strings stand for the structures. Active and inactive are the calls of the source. The rule behind the calls is not given here.

This series deals with rodent lifetime carcinogenesis bioassay, tumor incidence TD50. As to the kind of experiment: carcinogenic potency in animals, long-term in vivo studies, CPDB compilation (AID 1745844).

What is called TD50 is the dose at which the toxic effect under study appears in half of the subjects. Regarding `OCCN(CCO)CCO`, the TD50 reads like this: (mouse, strain B6C3F1, females, in drinking water, site: any site (literature study), lesion: one or several types, types not named, dosed 82 weeks, study length 82 weeks) inactive: 63500 mg/kg/day; (mouse, strain B6C3F1, females, in drinking water, site: liver, lesion: hemangioma, dosed 82 weeks, study length 82 weeks) inactive: 42000 mg/kg/day; (mouse, strain B6C3F1, males, in drinking water, site: any site (literature study), lesion: one or several types, types not named, dosed 82 weeks, study length 82 weeks) inactive: 74700 mg/kg/day; (mouse, strain ICR/Jcl, females, in feed, site: all sites, lesion: several types, types named in the paper, dosed 106 weeks, study length 108 weeks) 1290 mg/kg/day; (mouse, strain ICR/Jcl, females, in feed, site: any site (literature study), lesion: malignant tumor, dosed 106 weeks, study length 108 weeks) 100 mg/kg/day; (mouse, strain ICR/Jcl, females, in feed, site: any site (literature study), lesion: several types, types named in the paper, dosed 106 weeks, study length 108 weeks) 88.8 mg/kg/day. Also, the TD50 by setting is: (rat, strain F344/DuCrj, females, in drinking water, site: liver, lesion: neoplastic nodule, dosed 104 weeks, study length 113 weeks) inactive: 47000 mg/kg/day; (rat, strain F344/DuCrj, males, in drinking water, site: liver, lesion: hepatocellular carcinoma, dosed 104 weeks, study length 113 weeks) inactive: 53600 mg/kg/day; (rat, strain F344/DuCrj, males, in drinking water, site: liver, lesion: neoplastic nodule, dosed 104 weeks, study length 113 weeks) inactive: 9590 mg/kg/day. Further, the carcinogen call is “inactive: negative” (mouse, strain B6C3F1, females, in drinking water, site: lung, lesion: adenoma, dosed 82 weeks, study length 82 weeks); “inactive: negative” (mouse, strain B6C3F1, males, in drinking water, site: liver, lesion: hepatocellular carcinoma, dosed 82 weeks, study length 82 weeks); “inactive: negative” (mouse, strain B6C3F1, males, in drinking water, site: lung, lesion: adenocarcinoma, dosed 82 weeks, study length 82 weeks); “inactive: negative” (mouse, strain B6C3F1, males, in drinking water, site: lung, lesion: adenoma, dosed 82 weeks, study length 82 weeks); “positive” (mouse, strain ICR/Jcl, males, in feed, site: any site (literature study), lesion: malignant tumor, dosed 110 weeks, study length 117 weeks); “inactive: negative” (rat, strain F344/DuCrj, females, in drinking water, site: any site (literature study), lesion: several types, types named in the paper, dosed 104 weeks, study length 113 weeks). Under “rat, strain F344/DuCrj, males, in drinking water, site: any site (literature study), lesion: several types, types named in the paper, dosed 104 weeks, study length 113 weeks”, the carcinogen call is “inactive: negative”.

For the compound `COP(=S)(OC)SCCNC(C)=O`, the carcinogen call (rat, strain Sprague-Dawley, females, in feed, site: liver, lesion: one or several types, types not named, dosed 104 weeks, study length 104 weeks) was “inactive: negative” and the carcinogen call (rat, strain Sprague-Dawley, males, in feed, site: liver, lesion: one or several types, types not named, dosed 104 weeks, study length 104 weeks) was “inactive: negative”.

For `C1CN1`, the TD50 is 3.29 mg/kg/day (mouse, strain B6AKF1, females, oral dosing, site: liver, lesion: hepatoma, dosed 76 weeks, study length 76 weeks); 0.283 mg/kg/day (mouse, strain B6AKF1, females, oral dosing, site: lung, lesion: adenoma, dosed 76 weeks, study length 76 weeks); 0.8 mg/kg/day (mouse, strain B6AKF1, males, oral dosing, site: liver, lesion: hepatoma, dosed 76 weeks, study length 76 weeks); 0.485 mg/kg/day (mouse, strain B6AKF1, males, oral dosing, site: lung, lesion: adenoma, dosed 76 weeks, study length 76 weeks); 2.14 mg/kg/day (mouse, strain B6AKF1, males, oral dosing, site: lung, lesion: bronchogenic carcinoma, dosed 76 weeks, study length 76 weeks); 0.5 mg/kg/day (mouse, strain B6C3F1, females, oral dosing, site: liver, lesion: hepatoma, dosed 76 weeks, study length 76 weeks). In addition, the TD50 (mouse, strain B6C3F1, males, oral dosing, site: any site (literature study), lesion: several types, types named in the paper, dosed 77 weeks, study length 77 weeks) was determined as 0.223 mg/kg/day; the TD50 (mouse, strain B6C3F1, males, oral dosing, site: liver, lesion: hepatoma, dosed 77 weeks, study length 77 weeks) is 0.295 mg/kg/day; the TD50 (mouse, strain B6C3F1, males, oral dosing, site: lung, lesion: adenoma, dosed 77 weeks, study length 77 weeks) turned out to be 0.364 mg/kg/day; the TD50 (mouse, strain B6C3F1, males, oral dosing, site: lung, lesion: several types, types named in the paper, dosed 77 weeks, study length 77 weeks) is 0.295 mg/kg/day. Where the note is “mouse, strain B6C3F1, females, oral dosing, site: lung, lesion: adenoma, dosed 76 weeks, study length 76 weeks”, the carcinogen call was “positive”.

As to `O[C@@H]([C@H](O)[C@H](O)CNCCCl)[C@H](O)CNCCCl`, the TD50 is, setting by setting: (rat, strain BR 46, males, i.v., site: any site (literature study), lesion: benign tumor, dosed 52 weeks, study length 104 weeks) 23.5 mg/kg/day; (rat, strain BR 46, males, i.v., site: any site (literature study), lesion: malignant tumor, dosed 52 weeks, study length 104 weeks) 3.85 mg/kg/day; (rat, strain BR 46, males, i.v., site: any site (literature study), lesion: several types, types named in the paper, dosed 52 weeks, study length 104 weeks) 3.11 mg/kg/day.

For the origin of these results see PubChem BioAssay AID1745844 (Carcinogenic Potency Database (CPDB), 2022).
